We go through one molecule from patent US20230295288A1 (TILLOTTS PHARMA, published 2023).

The chains behind the UniProt entries cited, without tags or fusion partners. Residues count along the entry.
UniProt P01375, 77-233 limits assumed: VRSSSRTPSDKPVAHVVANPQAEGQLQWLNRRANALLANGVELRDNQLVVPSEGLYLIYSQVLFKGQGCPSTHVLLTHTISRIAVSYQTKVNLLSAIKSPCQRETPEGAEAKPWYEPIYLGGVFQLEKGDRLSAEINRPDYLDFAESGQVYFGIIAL
UniProt P55899, 24-297 limits assumed, chain 1 of 2: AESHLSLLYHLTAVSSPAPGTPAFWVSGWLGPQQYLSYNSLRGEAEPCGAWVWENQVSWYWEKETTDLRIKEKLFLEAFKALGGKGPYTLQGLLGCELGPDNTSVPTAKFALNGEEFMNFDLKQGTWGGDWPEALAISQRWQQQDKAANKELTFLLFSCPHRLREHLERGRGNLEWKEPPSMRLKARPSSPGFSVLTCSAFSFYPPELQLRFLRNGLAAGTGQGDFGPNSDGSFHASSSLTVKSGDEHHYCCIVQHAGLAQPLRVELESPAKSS

One assay concerns the target TNFα (human, UniProt P01375 77-233). The assay is described as follows: cell-based or functional assay.
The target of assay [1] is T1, monomeric His-tagged human FcRn (human, UniProt P55899 24-297; P61769 21-119).
T1 construct: The b2m chain is an addition from general knowledge; also called hFcRn; neonatal Fc receptor
The assay is described as follows: SPR (Biacore 3000), antibody amine-coupled, monomeric His-tagged hFcRn as analyte, pH 6.0, 1:1 Langmuir model, 25 °C.

B1: infliximab (antibody)
chain 1: not shown
chain 2: DILLTQSPAILSVSPGERVSFSCRASQFVGSSIHWYQQRTNGSPRLLIKYASESMSGIPSRFSGSGSGTDFTLSINTVESEDIADYYCQQSHSWPFTFGSGTNLEVKRTVAAPSVFIFPPSDEQLKSGTASVVCLLNNFYPREAKVQWKVDNALQSGNSQESVTEQDSKDSTYSLSSTLTLSKADYEKHKVYACEVTHQGLSSPVTKSFNRGEC
In the case of B1, the “IC50 (read off the curve), L929 TNFα neutralisation [lower panel]” value in the assay with TNFα was roughly 0.04 µg/mL. In addition, in assay [1], the Kd (commonly a measure of binding affinity in units of concentration) came out at 425 nM.
